In paper PMC4369172:

Molecular target: RhoGDI2 (Rho GDP dissociation inhibitor 2), endogenous (human (endogenous in RT4, T24, MDA-MB-231, Jurkat, OVCAR-4)) (UniProt P52566)
Assay: co-IP

Rac1, endogenous (from UniProt P63000 1-192) (natural protein)
percent of total GTPase bound to RhoGDI2: 38%
